Test results reported in article PMC10252837, “A Novel Time-Resolved Fluorescence Resonance Energy Transfer Assay for the Discovery of Small-Molecule Inhibitors of HIV-1 Tat-Regulated Transcription” (International Journal of Molecular Sciences, 2023).

Test system: HIV-1NL4-3
Experiment: HIV-1 infectivity in TZM-bl cells (LTR-driven F-Luc)
Assay type: cell-based
Procedure: (A) (Upper panel) Doxycycline (Dox)-inducible Tat-expressing bl-DTR cells cultured in 96-well plates treated with two-fold serial dilutions of each compound in the presence of Dox (50 ng/mL). At 24 h after treatment, the activity of firefly luciferase (F-Luc), indicating Tat activity, was determined as described in the Materials and Methods section. (Bottom panel) TZM-bl cells were treated with two-fold serial dilutions of the indicated compound and then infected with the HIV-1NL4-3 strain at a multiplicity of infection (MOI) of 1. At 24 h after infection, the viral infectivity and cell viability were determined as described in the Materials and Methods section. […] At 24 h after treatment, LTR promoter activity was determined via a Bright-Glo Luciferase Assay Kit. […] The mobility of biotinylated TAR RNA was detected by chemiluminescence.
To determine the inhibitory effect of hit compounds on HIV-1 infection, we used TZM-bl cells (also referred to as JC53BL-13), which express HIV-1 receptors and contain the LTR-driven F-Luc gene controlled by HIV-1 infection, as described previously but with some minor modifications. […] At 24 h after infection, the inhibitory effect of the hit compounds on infectivity was determined using the Bright-Glo Luciferase Assay Kit (Promega). The dose–response data are expressed as a relative percentage compared to the DMSO control (vehicle). […]

In the case of `CN1C/C=C/CCOc2cccc(c2)-c2ccnc(n2)Nc2cccc(c2)C1` [Hit 460-G06, (E)-6-methyl-12-oxa-3,6-diaza-2(4,2)-pyrimidine-1,4(1,3)-dibenzenacyclododecaphan-8-ene], the “SI (selectivity index)” value is reported as 380.000.
